For one molecule, Ki results are on record in BindingDB's records for doi:10.1016/j.ejphar.2004.03.050 (Memorial Sloan-Kettering Cancer Center, 2004).

By UniProt entry, the sequences of proteins in these tests, tags left out.
UniProt P79350, whole entry: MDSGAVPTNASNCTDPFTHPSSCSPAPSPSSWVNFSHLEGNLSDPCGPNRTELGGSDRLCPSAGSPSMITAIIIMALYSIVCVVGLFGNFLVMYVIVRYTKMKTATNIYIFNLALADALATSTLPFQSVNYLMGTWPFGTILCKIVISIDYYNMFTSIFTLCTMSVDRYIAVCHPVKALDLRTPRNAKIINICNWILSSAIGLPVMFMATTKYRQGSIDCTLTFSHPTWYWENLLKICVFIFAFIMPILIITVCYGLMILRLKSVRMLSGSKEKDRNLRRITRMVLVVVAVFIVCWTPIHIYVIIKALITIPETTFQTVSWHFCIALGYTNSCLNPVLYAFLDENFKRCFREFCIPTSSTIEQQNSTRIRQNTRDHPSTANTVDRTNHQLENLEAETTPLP

This experiment has as its target Mu-type opioid receptor (Bos taurus, UniProt P79350).

The molecule `CN1CCC23c4c5ccc(O)c4OC2C(O)CCC3C1C5` (stereo unspecified) [CAS_509-60-4] registered a Ki of 0.23 nM.
